Test results as given in patent publication US20040072801A1, “Sterols bearing pendant allosteric effectors of hemoglobin, and uses thereof” (priority 2002, published 2004).

What was measured:
[1] = Solubility in water
[2] = test system: mice RBC; format: in vivo; conditions: ip at 30, 45 and 60 mM
Method: KF16 was also administered at 3 concentrations (30, 45 and 60 mM) by intraperitonal (ip) injection. […] Three hours after injection, samples of blood were taken for P50 measurements. […] We have observed the shift of the P50 values in the blood from the injected animals over 3 days.
The P50 shift of RBC is similar to iv injections at concentrations of 30 and 45 mM. After ip injections with KF16.4 there is a shift of 12 to 18% following the increasing concentration of the effector (30-60 mM).

[3] = test system: C57B1/6 mice

Substance: Inositol hexaphosphate-cholesteroloxycarbonyl, hepta N,N-dimethyl-cyclohexylammonium salt [KF16]
- solubility in water [1]: soluble in water
- tolerability, intraperitonal injection [2]: tolerated well in all concentrations
- tolerability, intraperitonal injection ([2]; listed as KF 16): non toxic
- tolerability, direct injection into the vein ([3]; iv 200 μL at 30, 45 and 60 mM, observed 2 hours): non-toxic
- tolerability, direct injection into the vein ([3]; iv at 30 and 45 mM): non-toxic

Like-named read-outs stand apart in the source and are kept apart here.
